Data on 21 molecules can be found in PubChem BioAssay AID1656 (Sanford-Burnham Center for Chemical Genomics, 2009).

The entries are a selection whose mix differs from that of the whole data set. Some tests of the compounds listed are not included; inactive here does not mean inactive elsewhere. Calls of active or inactive are those of the source.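 The calls were made as follows: active = lipid droplet intensity inhibited by at least 50%, with more than 500 cells counted; inconclusive = wells with under 300 cells, treated as cytotoxic; inactive = the rest.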

A short description of the test: inhibitors of hepatocyte lipid droplet formation, primary screen, imaging, high-throughput imaging, BODIPY stain (AID 1656). To be noted: AML12 mouse hepatocytes, oleate lipid droplets, at 6.5 µM, stronger effect = higher value. The method in brief:
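Material – mouse AML12 hepatocyte cell line, fixed after treatment · Compound dosing – one dose, 6.5 µM compound · Times – compound with oleate, overnight · Measured by – Image-based BODIPY and DAPI two-channel analysis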
As for `O=C(OC1CN2CCC1CC2)C(CO)(c1ccccc1)c1ccccc1` (stereo unspecified), the inhibition is inactive: 0%.

Regarding `COc1ccc(Br)c(C(=O)NCC2(N3CCCCC3)CCCCC2)c1`, the inhibition is inactive: -3.5%.

With `CN(C)C1(CNC(=O)c2ccc(Br)cc2)CCCCC1`, the inhibition was inactive: -4.7%.

On to `COc1cc(C(=O)NCC2(N(C)C)CCCCC2)c([N+](=O)[O-])cc1OC`, for which the inhibition was inactive: -2.3%.

On to `COc1ccc(Cl)cc1C(=O)NCC1(N(C)C)CCCCC1`, for which the inhibition is inactive: -5.7%.

As to `COc1cccc(C(=O)NCC2(N3CCCCC3)CCCCC2)c1`, the inhibition is inactive: -17.6%.

Take `O=C(NCC1(N2CCCCC2)CCCCC1)c1cccc(Cl)c1`: the inhibition was inactive: 1.8%.

As for `CN(C)c1ccc(C(=O)NCC2(N(C)C)CCCCC2)cc1`, the inhibition was inactive: 13.6%.

For `CN(C)C1CCCC1OC(=O)C(O)(c1ccccc1)c1ccccc1` (stereo unspecified), the inhibition is inactive: 5.3%.

As for `Cc1ccccc1C(=O)NCC1(N2CCCCC2)CCCCC1`, the inhibition was inactive: 1.1%.

On to `O=C(NCC1(N2CCCCC2)CCCCC1)c1cc(F)c(F)cc1Cl`, for which the inhibition was inactive: -73%.

On to `C=CCN1CCN(CCOC(=O)C(O)(c2ccccc2)c2ccccc2)CC1`, for which the inhibition is inactive: 0.4%.

Consider `COc1ccc(C(=O)NCC2(N(C)C)CCCCC2)cc1`, for which the inhibition is inactive: 3.6%.

For `O=C(NCC1(N2CCCCC2)CCCCC1)c1cccc(Br)c1`, the inhibition is inactive: 3%.

In the case of `CCN1CCCC(OC(=O)C2(O)c3ccccc3C=Cc3ccccc32)C1` (stereo unspecified), the inhibition was inactive: -7.5%.

On to `Cc1cc(C(=O)NCC2(N3CCCCC3)CCCCC2)ccc1[N+](=O)[O-]`, for which the inhibition is inactive: 2.8%.

As to `O=C(NCC1(N2CCCCC2)CCCCC1)c1cc([N+](=O)[O-])ccc1Cl`, the inhibition is inactive: -10.8%.

`CN1[C@@H]2CC[C@H]1CC(OC(=O)C(O)(c1ccccc1)c1ccccc1)C2` (stereo partly specified): the inhibition is inactive: -9.2%.

For `COc1cc(SC)ccc1C(=O)NCC1(N(C)C)CCCCC1`, the inhibition is inactive: -10.6%.

As to `CCN(CC)CC(C)C(C)OC(=O)C(O)(c1ccccc1)c1ccccc1` (stereo unspecified), the inhibition is inactive: 5.1%.

Regarding `Cc1ccc(C(=O)NCC2(N3CCCCC3)CCCCC2)cc1`, the inhibition was inactive: -6.1%.
